Experimental data taken from PubChem BioAssay AID1631 (National Center for Advancing Translational Sciences (NCATS), 2009).
This is a selection; strong and weak results do not stand in their true shares. Activity calls are given as the source filed them. The call rests on the fitted dose curve; in most records, active means well fitted activation curve with a large enough effect; inconclusive means small, poorly fitted or top-dose-only effect; inactive means no such curve, though single readings can be large or run the other way.

Protein sequences, listed by entry. Tags and fused reporters are not part of them.
UniProt P14618, whole entry: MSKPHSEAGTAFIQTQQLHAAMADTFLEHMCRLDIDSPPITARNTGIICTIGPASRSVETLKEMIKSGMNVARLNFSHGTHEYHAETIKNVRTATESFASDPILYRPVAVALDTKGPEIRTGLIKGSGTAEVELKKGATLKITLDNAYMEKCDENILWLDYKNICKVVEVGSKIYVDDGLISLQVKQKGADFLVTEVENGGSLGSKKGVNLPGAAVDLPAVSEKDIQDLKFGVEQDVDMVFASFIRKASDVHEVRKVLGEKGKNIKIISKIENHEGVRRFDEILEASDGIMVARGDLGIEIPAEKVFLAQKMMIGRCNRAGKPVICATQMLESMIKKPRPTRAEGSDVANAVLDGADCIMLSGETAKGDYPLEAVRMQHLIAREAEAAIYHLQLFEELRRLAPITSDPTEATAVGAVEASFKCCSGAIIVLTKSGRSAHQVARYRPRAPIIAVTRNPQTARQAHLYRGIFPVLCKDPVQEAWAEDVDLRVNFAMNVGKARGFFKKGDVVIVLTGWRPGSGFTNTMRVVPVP

molecular target: Pyruvate kinase PKM (Homo sapiens) (UniProt P14618); experiment: qHTS Assay for Activators of Human Muscle isoform 2 Pyruvate Kinase; conditions: purified PKM2, Kinase-Glo ATP luminescence, 0% is enzyme alone, no compound; at 57.5 µM (top of the series); further: nearly all actives have a fitted effect of over 55% in size
From the text: NIH Chemical Genomics Center [NCGC] Matthew G. Vander Heiden, M.D., Ph.D. [Harvard Medical School, 77 Avenue Louis Pasteur, Boston, MA 02115] MLPCN Grant: 1 R03 MH085679-01 NCGC Assay Overview: Human pyruvate kinase muscle 2 (hPK-M2) enzyme was supplied as a highly purified (>95% pure) preparation from Harvard Medical School and assayed for its ability to generate ATP from ADP using phosphoenolpyruvate (PEP) as a substrate. ATP generation was detected in a coupled reaction by luciferase-mediated luminescence, an ATP-dependent process. […] The enzyme was assayed at an intermediate level of activity to screen for both inhibitors and activators.
NCGC Assay Protocol Summary: Three uL of substrate mix (at r.t.) in assay buffer (50 mM Imidazole pH7.2, 50 mM KCl, 7 mM MgCl2, 0.01% Tween 20, 0.05% BSA) was dispensed into white solid bottom 1,536 well microtiter plates so that the final concentrations of substrates in the assay were 0.1 mM ADP and 0.5 mM PEP. 23 nL of compound were delivered by a pin tool and 1 uL of enzyme mix in assay buffer (4 degree Celsius) was added. Plates were incubated at room temperature for 1 hour. Two uL of detection mix (Kinase-Glo, Promega; at 4 degree Celsius protected from light) was added and luminescence read by a ViewLux (Perkin Elmer) at 5 second exposure/plate. Data were normalized to the uninhibited and AC100 inhibition (no enzyme). To monitor activation, the first column contained a titration of the activator, NCGC00031955-01 (16-point 1:2 dilutions in duplicate starting at 57 uM) and the first 16 rows of column 4 contained 57 uM of NCGC00031955-01.
On the % scale 0 is the no-effect control and ±100 the full control effect.

**Q.** With `CC1=NCCc2c1[nH]c1ccccc21.O=[N+]([O-])c1cc([N+](=O)[O-])c(O)c([N+](=O)[O-])c1` as the molecule, how does the activation read?
**A.** The activation was inactive: 2.02%.

**Q.** For `COc1ccccc1OP(C)(=O)Nc1cccc(Br)c1` (stereo unspecified), which activation is on record?
**A.** Its activation is inactive: 0.136%.

**Q.** `CCOC(=O)c1ccc(NP(C)(=O)Oc2cc(C)cc(C)c2)cc1` (stereo unspecified) was tested. Which activation did it give?
**A.** The activation was inactive: -2.35%.

**Q.** With `Cc1cc(C)cc(OP(C)(=O)Nc2ccc(C)cc2C)c1` (stereo unspecified) as the molecule, how does the activation read?
**A.** The activation was inactive: -0.918%.

**Q.** How did the activation turn out when `Cc1ccc(C)c(NP(C)(=O)Oc2ccccc2)c1` (stereo unspecified) was run?
**A.** Its activation is inactive: -20.2%.

**Q.** For `Cc1cc(C)cc(OP(C)(=O)Nc2ccccn2)c1` (stereo unspecified), which activation is on record?
**A.** The activation was inactive: -1.66%.

**Q.** `CP(=O)(Nc1cccc(Br)c1)Oc1ccccc1` (stereo unspecified) was tested. Which activation did it give?
**A.** The activation was inactive: -2.91%.

**Q.** Which activation does the source give for `O=[N+]([O-])c1cc([N+](=O)[O-])c(-n2nnc3ccccc32)c([N+](=O)[O-])c1` here?
**A.** Its activation is inactive: -1.57%.

**Q.** For `Cc1nc2ccc3ccccc3c2s1.O=[N+]([O-])c1cc([N+](=O)[O-])c(O)c([N+](=O)[O-])c1`, which activation is on record?
**A.** The activation was inactive: -2.76%.

**Q.** With `O=[N+]([O-])c1cc([N+](=O)[O-])c(Nc2nnnn2CCO)c([N+](=O)[O-])c1` as the molecule, how does the activation read?
**A.** Its activation is inactive: -9.87%.

**Q.** With `CN1CCCCC1COC(=O)C1(O)c2ccccc2CCc2ccccc21` (stereo unspecified) as the molecule, how does the activation read?
**A.** Its activation is inactive: -23.3%.

**Q.** With `COc1ccccc1OP(C)(=O)Nc1c(C)cccc1C` (stereo unspecified) as the molecule, how does the activation read?
**A.** Its activation is inactive: -0.0669%.

**Q.** `CCCOc1ccc(NP(C)(=O)Oc2ccc(Cl)cc2)cc1` (stereo unspecified) was tested. Which activation did it give?
**A.** Its activation is inactive: -0.634%.

**Q.** How did the activation turn out when `CP(=O)(Nc1ccc(SC(F)(F)F)cc1)Oc1ccccc1` (stereo unspecified) was run?
**A.** The activation was inactive: -13.7%.

**Q.** `CP(=S)(Nn1cnnc1)Oc1ccccc1` (stereo unspecified) was tested. Which activation did it give?
**A.** The activation was inactive: -1.31%.

**Q.** Which activation does the source give for `CP(=O)(Nc1ccccc1Br)Oc1ccccc1` (stereo unspecified) here?
**A.** The activation was inactive: -3.72%.

**Q.** `COc1ccccc1OP(C)(=O)Nc1ccccc1` (stereo unspecified) was tested. Which activation did it give?
**A.** The activation was inactive: 3.12%.

**Q.** How did the activation turn out when `CP(=O)(Nc1ccc(SC(F)(F)F)cc1)Oc1ccc(Cl)cc1` (stereo unspecified) was run?
**A.** The activation was inactive: 0.861%.

**Q.** For `Cc1cccc(C)c1OP(C)(=O)Nc1ccc(SC(F)(F)F)cc1` (stereo unspecified), which activation is on record?
**A.** Its activation is inactive: 2.89%.

**Q.** How did the activation turn out when `CP(=O)(Oc1ccccc1)OC(c1ccccc1)C(F)(F)F` (stereo unspecified) was run?
**A.** The activation was inactive: 3.82%.

**Q.** How did the activation turn out when `CP(=O)(NC(=O)Nc1ccccc1)Oc1ccccc1` (stereo unspecified) was run?
**A.** The activation was inactive: 1.33%.

**Q.** For `CCc1ccc(OP(C)(=O)N2CCN(c3ccc([N+](=O)[O-])cc3)CC2)cc1` (stereo unspecified), which activation is on record?
**A.** Its activation is inactive: 2.39%.

**Q.** With `Cc1cc(C)cc(OP(C)(=O)Nc2ccc(SC(F)(F)F)cc2)c1` (stereo unspecified) as the molecule, how does the activation read?
**A.** The activation was inactive: -4.19%.

**Q.** With `CCOC(=O)c1ccc(NP(C)(=O)Oc2ccc(OC)cc2)cc1` (stereo unspecified) as the molecule, how does the activation read?
**A.** The activation was inactive: -0.551%.

**Q.** How did the activation turn out when `CCOP(C)(=S)SCC(=O)NC(C)C(=O)O` (stereo unspecified) was run?
**A.** The activation was inactive: -0.747%.

**Q.** How did the activation turn out when `CP(=O)(Nc1ccccn1)Oc1ccc(Cl)cc1` (stereo unspecified) was run?
**A.** Its activation is inactive: 9.37%.
